Sequences of proteins named here, by UniProt entry; tags and fusion partners are left off.
UniProt P08588, whole entry: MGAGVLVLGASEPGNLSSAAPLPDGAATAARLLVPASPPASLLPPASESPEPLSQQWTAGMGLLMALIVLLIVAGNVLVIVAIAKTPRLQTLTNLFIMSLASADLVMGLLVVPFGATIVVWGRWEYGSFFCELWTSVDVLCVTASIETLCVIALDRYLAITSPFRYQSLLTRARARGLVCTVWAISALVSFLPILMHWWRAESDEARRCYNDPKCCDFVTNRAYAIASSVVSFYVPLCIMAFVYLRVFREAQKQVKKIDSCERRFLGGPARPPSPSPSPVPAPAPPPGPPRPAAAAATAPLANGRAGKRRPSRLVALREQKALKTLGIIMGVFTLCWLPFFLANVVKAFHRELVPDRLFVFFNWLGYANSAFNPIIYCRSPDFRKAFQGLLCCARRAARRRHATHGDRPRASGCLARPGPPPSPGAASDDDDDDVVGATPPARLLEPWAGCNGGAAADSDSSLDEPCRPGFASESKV

According to PMC5471521, “Novel selective β1-adrenoceptor antagonists for concomitant cardiovascular and respiratory disease” (The FASEB Journal, 2017):

Target: human β1-AR (Homo sapiens, UniProt P08588)
Experiment: 3H-CGP12177 whole-cell binding in CHO-β1 cells
Conditions: mean ± SEM

SMILES	Human β1-AR Log Kd
NC(=O)c1ccc(OCCNC[C@H](O)COc2ccc3c(c2)OC[C@@H](COCC2CC2)O3)cc1 [NDD-713]	−7.70 ± 0.04
O=C1NCc2cc(OCCNC[C@H](O)COc3ccc4c(c3)OC[C@@H](COCC3CC3)O4)ccc21 [NDD-825]	−8.17 ± 0.03
